Assays:
amylin receptors = biological target: T1, amylin receptors (Rattus norvegicus, UniProt P32214); assay: Receptor binding assay (competition with 125I Bolton-Hunter rat amylin)
T1 construct: This basal forebrain tissue, containing the nucleus accumbens and surrounding regions, was weighed and homogenized; from tissue; host or cells: rat basal forebrain (nucleus accumbens and surrounding regions) membranes
T1 sequence (P32214 25-516): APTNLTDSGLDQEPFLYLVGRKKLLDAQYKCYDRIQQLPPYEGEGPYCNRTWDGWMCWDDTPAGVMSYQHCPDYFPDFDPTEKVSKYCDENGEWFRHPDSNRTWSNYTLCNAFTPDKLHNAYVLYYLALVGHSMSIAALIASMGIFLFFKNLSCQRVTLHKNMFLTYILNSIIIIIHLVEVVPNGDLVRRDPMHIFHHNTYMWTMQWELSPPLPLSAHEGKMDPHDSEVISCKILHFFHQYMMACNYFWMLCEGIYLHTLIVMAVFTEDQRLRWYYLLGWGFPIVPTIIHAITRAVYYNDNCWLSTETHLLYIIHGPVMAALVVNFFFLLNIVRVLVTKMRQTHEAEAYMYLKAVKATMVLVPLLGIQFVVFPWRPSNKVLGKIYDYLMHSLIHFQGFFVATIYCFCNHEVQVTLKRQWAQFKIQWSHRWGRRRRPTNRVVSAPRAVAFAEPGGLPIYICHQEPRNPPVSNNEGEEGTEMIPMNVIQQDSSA
Excerpt: A preferred source of the membrane preparations used in the assay is the basal foregrain which comprises membranes from the nucleus accumbens and surrounding regions.
Unlabeled peptides were obtained from BACHEM Inc. (Torrance, Calif.) and Peninsula Laboratories (Belmont, Calif.).
Male Sprague-Dawley rats (200-250) grams were sacrificed by decapitation. Brains were removed to cold phosphate-buffered saline (PBS). From the ventral surface, cuts were made rostral to the hypothalamus, bounded laterally by the olfactory tracts and extending at a 45° angle medially from these tracts. This basal forebrain tissue, containing the nucleus accumbens and surrounding regions, was weighed and homogenized in ice-cold 20 mM HEPES buffer (20 mM HEPS acid, pH adjusted to 7.4 with NaOH at 23° C.). […] The final membrane pellet was resuspended in 20 nM HEPES buffer containing 0.2 mM phenylmethylsulfonyl fluoride (PMSF).
Solutions were incubated for 60 minutes at 23° C. […] Filters were washed immediately before filtration with 5 ml cold PBS, and immediately after filtration with 15 ml cold PBS.

[1] = test system: insulin-stimulated glycogen synthesis in soleus muscle; assay: Soleus muscle assay (inhibition of insulin-stimulated glycogen synthesis); format: cell-based, rat
Description: Concentrations of peptide dissolved in carrier-free buffers are determined by quantitative amino acid analysis, as described therein. The ability of compounds to act as agonists in this assay is determined by measuring EC50 values. […] Similar results were obtained with other agonist compounds listed above.

[2] = Amylin activity in vivo in treated test animals (hyperlactemia, hyperglycemia)

In the case of `CC[C@H](C)[C@H](NC(=O)[C@@H]1CCCN1C(=O)CNC(=O)[C@H](Cc1ccccc1)NC(=O)[C@H](CC(N)=O)NC(=O)[C@H](CC(N)=O)NC(=O)[C@H](CO)NC(=O)[C@H](CO)NC(=O)[C@H](Cc1c[nH]cn1)NC(=O)[C@@H](NC(=O)[C@H](CC(C)C)NC(=O)[C@H](Cc1ccccc1)NC(=O)[C@H](CC(N)=O)NC(=O)[C@H](C)NC(=O)[C@H](CC(C)C)NC(=O)[C@H](CCCNC(=N)N)NC(=O)[C@H](CCC(N)=O)NC(=O)[C@@H](NC(=O)[C@H](C)NC(=O)[C@@H]1CSSC[C@H](NC(=O)[C@@H](N)CCCCN)C(=O)N[C@@H](CC(N)=O)C(=O)N[C@@H]([C@@H](C)O)C(=O)N[C@@H](C)C(=O)N[C@@H]([C@@H](C)O)C(=O)N1)[C@@H](C)O)C(C)C)C(=O)N[C@@H](CC(C)C)C(=O)N1CCC[C@H]1C(=O)N1CCC[C@H]1C(=O)N[C@H](C(=O)N[C@@H](CC(N)=O)C(=O)N[C@H](C(=O)NCC(=O)N[C@@H](CO)C(=O)N[C@@H](CC(N)=O)C(=O)N[C@H](C(=O)N[C@@H](Cc1ccc(O)cc1)C(N)=O)[C@@H](C)O)C(C)C)[C@@H](C)O` [^25,28,29Pro-h-Amylin], the “Competition with amylin / receptor binding activity (in words)” value (amylin receptors) is reported as “compete with amylin”, the EC50 [1] is reported as 3.71 nM and the “Amylin activity in vivo” value [2] is reported as “marked hyperlactemia followed by hyperglycemia”.
With `CC[C@H](C)[C@H](NC(=O)[C@H](C)NC(=O)CNC(=O)[C@H](Cc1ccccc1)NC(=O)[C@H](CC(N)=O)NC(=O)[C@H](CC(N)=O)NC(=O)[C@H](CO)NC(=O)[C@H](CO)NC(=O)[C@H](Cc1c[nH]cn1)NC(=O)[C@@H](NC(=O)[C@H](CC(C)C)NC(=O)[C@H](Cc1ccccc1)NC(=O)[C@H](CC(N)=O)NC(=O)[C@H](C)NC(=O)[C@H](CC(C)C)NC(=O)[C@H](CCCNC(=N)N)NC(=O)[C@H](CCC(N)=O)NC(=O)[C@@H](NC(=O)[C@H](C)NC(=O)[C@@H]1CSSC[C@H](NC(=O)[C@@H](N)CCCCN)C(=O)N[C@@H](CC(N)=O)C(=O)N[C@@H]([C@@H](C)O)C(=O)N[C@@H](C)C(=O)N[C@@H]([C@@H](C)O)C(=O)N1)[C@@H](C)O)C(C)C)C(=O)N[C@@H](CC(C)C)C(=O)N1CCC[C@H]1C(=O)N[C@@H](CO)C(=O)N[C@H](C(=O)N[C@@H](CC(N)=O)C(=O)N[C@H](C(=O)NCC(=O)N[C@@H](CO)C(=O)N[C@@H](CC(N)=O)C(=O)N[C@H](C(=O)N[C@@H](Cc1ccc(O)cc1)C(N)=O)[C@@H](C)O)C(C)C)[C@@H](C)O` [^28Pro-h-Amylin, ^28Pro-human-Amylin] the EC50 [1] was 2.64 nM and the “Amylin activity in vivo” value [2] was “marked hyperlactemia followed by hyperglycemia”.
In the case of `CC[C@H](C)[C@H](NC(=O)[C@@H]1CCCN1C(=O)CNC(=O)[C@H](Cc1ccccc1)NC(=O)[C@H](CC(N)=O)NC(=O)[C@H](CC(N)=O)NC(=O)[C@H](CO)NC(=O)[C@H](CO)NC(=O)[C@H](CCCNC(=N)N)NC(=O)[C@@H](NC(=O)[C@H](CC(C)C)NC(=O)[C@H](Cc1ccccc1)NC(=O)[C@H](CC(N)=O)NC(=O)[C@H](C)NC(=O)[C@H](CC(C)C)NC(=O)[C@H](CCCNC(=N)N)NC(=O)[C@H](CCC(N)=O)NC(=O)[C@@H](NC(=O)[C@H](C)NC(=O)[C@@H]1CSSC[C@H](NC(=O)[C@@H](N)CCCCN)C(=O)N[C@@H](CC(N)=O)C(=O)N[C@@H]([C@@H](C)O)C(=O)N[C@@H](C)C(=O)N[C@@H]([C@@H](C)O)C(=O)N1)[C@@H](C)O)C(C)C)C(=O)N[C@@H](CC(C)C)C(=O)N1CCC[C@H]1C(=O)N[C@@H](CO)C(=O)N[C@H](C(=O)N[C@@H](CC(N)=O)C(=O)N[C@H](C(=O)NCC(=O)N[C@@H](CO)C(=O)N[C@@H](CC(N)=O)C(=O)N[C@H](C(=O)N[C@@H](Cc1ccc(O)cc1)C(N)=O)[C@@H](C)O)C(C)C)[C@@H](C)O` [^18Arg^25,28Pro-h-Amylin], the “Competition with amylin / receptor binding activity (in words)” value (amylin receptors) is reported as “compete with amylin”, the EC50 [1] is reported as 2.83 nM and the “Amylin activity in vivo” value [2] is reported as “marked hyperlactemia followed by hyperglycemia”.
For `CC[C@H](C)[C@H](NC(=O)[C@H](C)NC(=O)CNC(=O)[C@H](Cc1ccccc1)NC(=O)[C@H](CC(N)=O)NC(=O)[C@H](CC(N)=O)NC(=O)[C@H](CO)NC(=O)[C@H](CO)NC(=O)[C@H](Cc1c[nH]cn1)NC(=O)[C@@H](NC(=O)[C@H](CC(C)C)NC(=O)[C@H](Cc1ccccc1)NC(=O)[C@H](CC(N)=O)NC(=O)[C@H](C)NC(=O)[C@H](CC(C)C)NC(=O)[C@H](CCCNC(=N)N)NC(=O)[C@H](CCC(N)=O)NC(=O)[C@@H](NC(=O)[C@H](C)NC(=O)[C@@H]1CSSC[C@H](N)C(=O)N[C@@H](CC(N)=O)C(=O)N[C@@H]([C@@H](C)O)C(=O)N[C@@H](C)C(=O)N[C@@H]([C@@H](C)O)C(=O)N1)[C@@H](C)O)C(C)C)C(=O)N[C@@H](CC(C)C)C(=O)N[C@@H](CO)C(=O)N[C@@H](CO)C(=O)N[C@H](C(=O)N[C@@H](CC(N)=O)C(=O)N[C@H](C(=O)NCC(=O)N[C@@H](CO)C(=O)N[C@@H](CC(N)=O)C(=O)N[C@H](C(=O)N[C@@H](Cc1ccc(O)cc1)C(N)=O)[C@@H](C)O)C(C)C)[C@@H](C)O` [^2,37h-Amylin, des-^1Lys-h-Amylin], the EC50 [1] was 1.63 nM and the “Amylin activity in vivo” value [2] was “marked hyperlactemia followed by hyperglycemia”.
In the case of `CC[C@H](C)[C@H](NC(=O)[C@@H]1CCCN1C(=O)CNC(=O)[C@H](Cc1ccccc1)NC(=O)[C@H](CC(N)=O)NC(=O)[C@H](CC(N)=O)NC(=O)[C@H](CO)NC(=O)[C@H](CO)NC(=O)[C@H](CCCNC(=N)N)NC(=O)[C@@H](NC(=O)[C@H](CC(C)C)NC(=O)[C@H](Cc1ccccc1)NC(=O)[C@H](CC(N)=O)NC(=O)[C@H](C)NC(=O)[C@H](CC(C)C)NC(=O)[C@H](CCCNC(=N)N)NC(=O)[C@H](CCC(N)=O)NC(=O)[C@@H](NC(=O)[C@H](C)NC(=O)[C@@H]1CSSC[C@H](N)C(=O)N[C@@H](CC(N)=O)C(=O)N[C@@H]([C@@H](C)O)C(=O)N[C@@H](C)C(=O)N[C@@H]([C@@H](C)O)C(=O)N1)[C@@H](C)O)C(C)C)C(=O)N[C@@H](CC(C)C)C(=O)N1CCC[C@H]1C(=O)N1CCC[C@H]1C(=O)N[C@H](C(=O)N[C@@H](CC(N)=O)C(=O)N[C@H](C(=O)NCC(=O)N[C@@H](CO)C(=O)N[C@@H](CC(N)=O)C(=O)N[C@H](C(=O)N[C@@H](Cc1ccc(O)cc1)C(N)=O)[C@@H](C)O)C(C)C)[C@@H](C)O` [des-^1Lys^18Arg^25,28,29Pro-h-Amylin], the “Competition with amylin / receptor binding activity (in words)” value (amylin receptors) is reported as “compete with amylin” and the EC50 [1] is reported as 1.86 nM.
For `CC[C@H](C)[C@H](NC(=O)[C@@H]1CCCN1C(=O)CNC(=O)[C@H](Cc1ccccc1)NC(=O)[C@H](CC(N)=O)NC(=O)[C@H](CC(N)=O)NC(=O)[C@H](CO)NC(=O)[C@H](CO)NC(=O)[C@H](CCCNC(=N)N)NC(=O)[C@@H](NC(=O)[C@H](CC(C)C)NC(=O)[C@H](Cc1ccccc1)NC(=O)[C@H](CC(N)=O)NC(=O)[C@H](C)NC(=O)[C@H](CC(C)C)NC(=O)[C@H](CCCNC(=N)N)NC(=O)[C@H](CCC(N)=O)NC(=O)[C@@H](NC(=O)[C@H](C)NC(=O)[C@@H]1CSSC[C@H](NC(=O)[C@@H](N)CCCCN)C(=O)N[C@@H](CC(N)=O)C(=O)N[C@@H]([C@@H](C)O)C(=O)N[C@@H](C)C(=O)N[C@@H]([C@@H](C)O)C(=O)N1)[C@@H](C)O)C(C)C)C(=O)N[C@@H](CC(C)C)C(=O)N1CCC[C@H]1C(=O)N1CCC[C@H]1C(=O)N[C@H](C(=O)N[C@@H](CC(N)=O)C(=O)N[C@H](C(=O)NCC(=O)N[C@@H](CO)C(=O)N[C@@H](CC(N)=O)C(=O)N[C@H](C(=O)N[C@@H](Cc1ccc(O)cc1)C(N)=O)[C@@H](C)O)C(C)C)[C@@H](C)O` [^18Arg^25,28,29Pro-h-Amylin], the “Competition with amylin / receptor binding activity (in words)” value (amylin receptors) was “compete with amylin” and the EC50 [1] was 1.25 nM.

From patent US7407934B2, “Methods for regulating postprandial blood glucose” (Amylin Pharmaceuticals, Inc., priority 1993, dated 2008)
